Data as given in ChEMBL document CHEMBL1145574, “Carbonic anhydrase inhibitors: Inhibition of the new membrane-associated isoform XV with phenols” (Bioorg Med Chem Lett, 2008).

How the values were obtained:
Carbonic anhydrase 15 = molecular target: T1, Carbonic anhydrase 15 (Mus musculus, UniProt Q99N23)
T1 sequence (Q99N23 whole entry): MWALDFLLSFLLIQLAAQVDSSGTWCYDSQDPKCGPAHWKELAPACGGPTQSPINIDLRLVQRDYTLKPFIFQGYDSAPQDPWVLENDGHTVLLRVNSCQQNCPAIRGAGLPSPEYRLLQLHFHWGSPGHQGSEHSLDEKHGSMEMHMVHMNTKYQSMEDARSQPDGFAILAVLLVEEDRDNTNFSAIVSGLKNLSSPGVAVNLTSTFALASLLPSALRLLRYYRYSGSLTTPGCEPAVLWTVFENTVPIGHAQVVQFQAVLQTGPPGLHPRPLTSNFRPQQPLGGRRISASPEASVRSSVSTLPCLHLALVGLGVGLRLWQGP

Carbonic anhydrase 2 = Carbonic anhydrase 2 (Homo sapiens, UniProt P00918)

| Compound | Ki (Carbonic anhydrase 15) | Ki (Carbonic anhydrase 2) |
| --- | --- | --- |
| O=C(O)c1ccccc1O [SALICYLIC ACID] | 7.2 µM |  |
| O=C(O)c1ccc(O)cc1 [PARABEN] |  | 10.6 µM |
